Values of other authors, collected in patent US20100136097A1, “Systems for modulating inflammation” (Searete LLC, a limited liability corporation of the State …, priority 2008, published 2010).

Chains of the proteins cited; added tags and fusions are not shown. Residues count along the entry.
UniProt P09619, 33-1106: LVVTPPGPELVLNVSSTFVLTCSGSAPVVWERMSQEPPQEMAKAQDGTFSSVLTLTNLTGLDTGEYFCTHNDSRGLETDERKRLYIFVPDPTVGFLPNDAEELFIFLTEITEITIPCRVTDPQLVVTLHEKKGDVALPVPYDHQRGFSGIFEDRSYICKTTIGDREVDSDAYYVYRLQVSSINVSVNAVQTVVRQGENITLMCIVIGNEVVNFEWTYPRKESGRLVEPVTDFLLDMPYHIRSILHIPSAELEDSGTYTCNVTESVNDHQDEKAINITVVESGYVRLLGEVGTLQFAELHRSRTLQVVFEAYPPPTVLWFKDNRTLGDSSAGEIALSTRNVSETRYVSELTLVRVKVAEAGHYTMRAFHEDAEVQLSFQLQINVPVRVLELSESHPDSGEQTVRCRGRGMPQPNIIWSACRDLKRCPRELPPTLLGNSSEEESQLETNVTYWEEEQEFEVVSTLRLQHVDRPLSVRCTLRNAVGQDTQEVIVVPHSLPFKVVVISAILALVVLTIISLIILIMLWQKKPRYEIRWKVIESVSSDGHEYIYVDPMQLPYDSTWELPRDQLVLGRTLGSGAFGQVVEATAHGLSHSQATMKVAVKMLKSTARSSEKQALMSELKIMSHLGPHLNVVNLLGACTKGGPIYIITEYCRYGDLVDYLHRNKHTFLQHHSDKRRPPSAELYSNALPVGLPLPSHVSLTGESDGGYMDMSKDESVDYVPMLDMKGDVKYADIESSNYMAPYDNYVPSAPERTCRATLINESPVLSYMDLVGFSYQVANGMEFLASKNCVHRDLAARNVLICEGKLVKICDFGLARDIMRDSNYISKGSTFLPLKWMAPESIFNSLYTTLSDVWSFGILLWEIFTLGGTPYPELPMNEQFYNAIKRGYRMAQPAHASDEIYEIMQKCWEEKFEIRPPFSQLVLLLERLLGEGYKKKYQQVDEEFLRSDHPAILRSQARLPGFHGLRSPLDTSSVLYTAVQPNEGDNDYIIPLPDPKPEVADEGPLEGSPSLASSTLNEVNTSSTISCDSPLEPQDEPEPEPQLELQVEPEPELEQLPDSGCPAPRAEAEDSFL
UniProt P10721, 26-976: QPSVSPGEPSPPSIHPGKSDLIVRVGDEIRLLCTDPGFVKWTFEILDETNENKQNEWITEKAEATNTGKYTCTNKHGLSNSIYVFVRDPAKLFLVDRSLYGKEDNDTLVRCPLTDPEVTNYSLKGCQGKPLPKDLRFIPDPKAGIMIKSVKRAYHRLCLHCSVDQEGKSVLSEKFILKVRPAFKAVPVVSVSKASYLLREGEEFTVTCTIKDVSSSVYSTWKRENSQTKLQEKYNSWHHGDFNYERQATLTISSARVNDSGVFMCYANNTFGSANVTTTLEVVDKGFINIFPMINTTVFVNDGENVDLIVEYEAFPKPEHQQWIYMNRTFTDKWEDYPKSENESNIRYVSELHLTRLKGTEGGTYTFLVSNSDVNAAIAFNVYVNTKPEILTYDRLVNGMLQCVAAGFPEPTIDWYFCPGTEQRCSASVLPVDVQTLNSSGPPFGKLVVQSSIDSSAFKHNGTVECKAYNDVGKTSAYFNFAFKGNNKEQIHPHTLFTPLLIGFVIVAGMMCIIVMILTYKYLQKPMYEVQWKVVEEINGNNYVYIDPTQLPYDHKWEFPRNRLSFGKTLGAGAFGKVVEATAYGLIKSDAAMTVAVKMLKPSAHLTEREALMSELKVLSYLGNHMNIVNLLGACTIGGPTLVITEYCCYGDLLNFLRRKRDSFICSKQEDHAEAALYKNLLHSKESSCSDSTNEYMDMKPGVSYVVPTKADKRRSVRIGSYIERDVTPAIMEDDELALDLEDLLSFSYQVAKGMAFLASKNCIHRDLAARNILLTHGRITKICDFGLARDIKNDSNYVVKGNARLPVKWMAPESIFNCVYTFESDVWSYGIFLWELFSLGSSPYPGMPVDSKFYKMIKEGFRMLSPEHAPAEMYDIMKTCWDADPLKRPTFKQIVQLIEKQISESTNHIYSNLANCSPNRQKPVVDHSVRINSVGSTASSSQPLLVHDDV

Columns and labels:
PDGFRβ = PDGFRβ (Homo sapiens, UniProt P09619); settings: at nanomolar concentrations
c-Kit = c-Kit (Homo sapiens, UniProt P10721); settings: at nanomolar concentrations

## Cc1nc(Nc2ncc(C(=O)Nc3c(C)cccc3Cl)s2)cc(N2CCN(CCO)CC2)n1.O [dasatinib, N-(2-chloro-6-methylphenyl)-2-[[6-[4-(2-hydroxyethyl)-1-piperazinyl]-2-methyl-4-pyrimidinyl]amino]-5-thiazolecarboxamide, monohydrate]
PDGFRβ
  inhibition of PDGFRβ: inhibits
c-Kit
  inhibition of c-Kit: inhibits
